The source of these data is PubChem BioAssay AID771 (SRMLSC, 2007).

Only a part is listed here, and it is no random draw. The source made the active and inactive calls.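 The calls were made as follows: active = growth inhibition above 90%, meaning viable cell count by imaging cut by more than 90% versus vehicle controls; inactive = growth inhibition below 90%.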

The nature of this assay: HT29 colon tumor cell growth inhibition, primary screen, imaging, high content imaging, 48 h, CellTiter-Glo (AID 771). The following applies: HCS imaging cell count, at 10 µM, active compounds read high.
Take `CCN(CC)CC(O)COC(=O)C(O)(c1ccccc1)C1CCCCC1` (stereo unspecified): the growth inhibition is inactive: 41.1%.
